Earlier results, collected in paper PMC4416786, “Validation of a P-Glycoprotein (P-gp) Humanized Mouse Model by Integrating Selective Absolute Quantification of Human MDR1, Mouse Mdr1a and Mdr1b Protein Expressions with In Vivo Functional Analysis for Blood-Brain Barrier Transport” (PLoS ONE, 2015).

Protein sequences, listed by entry. Tags and fused reporters are not part of them.
UniProt P21447, whole entry: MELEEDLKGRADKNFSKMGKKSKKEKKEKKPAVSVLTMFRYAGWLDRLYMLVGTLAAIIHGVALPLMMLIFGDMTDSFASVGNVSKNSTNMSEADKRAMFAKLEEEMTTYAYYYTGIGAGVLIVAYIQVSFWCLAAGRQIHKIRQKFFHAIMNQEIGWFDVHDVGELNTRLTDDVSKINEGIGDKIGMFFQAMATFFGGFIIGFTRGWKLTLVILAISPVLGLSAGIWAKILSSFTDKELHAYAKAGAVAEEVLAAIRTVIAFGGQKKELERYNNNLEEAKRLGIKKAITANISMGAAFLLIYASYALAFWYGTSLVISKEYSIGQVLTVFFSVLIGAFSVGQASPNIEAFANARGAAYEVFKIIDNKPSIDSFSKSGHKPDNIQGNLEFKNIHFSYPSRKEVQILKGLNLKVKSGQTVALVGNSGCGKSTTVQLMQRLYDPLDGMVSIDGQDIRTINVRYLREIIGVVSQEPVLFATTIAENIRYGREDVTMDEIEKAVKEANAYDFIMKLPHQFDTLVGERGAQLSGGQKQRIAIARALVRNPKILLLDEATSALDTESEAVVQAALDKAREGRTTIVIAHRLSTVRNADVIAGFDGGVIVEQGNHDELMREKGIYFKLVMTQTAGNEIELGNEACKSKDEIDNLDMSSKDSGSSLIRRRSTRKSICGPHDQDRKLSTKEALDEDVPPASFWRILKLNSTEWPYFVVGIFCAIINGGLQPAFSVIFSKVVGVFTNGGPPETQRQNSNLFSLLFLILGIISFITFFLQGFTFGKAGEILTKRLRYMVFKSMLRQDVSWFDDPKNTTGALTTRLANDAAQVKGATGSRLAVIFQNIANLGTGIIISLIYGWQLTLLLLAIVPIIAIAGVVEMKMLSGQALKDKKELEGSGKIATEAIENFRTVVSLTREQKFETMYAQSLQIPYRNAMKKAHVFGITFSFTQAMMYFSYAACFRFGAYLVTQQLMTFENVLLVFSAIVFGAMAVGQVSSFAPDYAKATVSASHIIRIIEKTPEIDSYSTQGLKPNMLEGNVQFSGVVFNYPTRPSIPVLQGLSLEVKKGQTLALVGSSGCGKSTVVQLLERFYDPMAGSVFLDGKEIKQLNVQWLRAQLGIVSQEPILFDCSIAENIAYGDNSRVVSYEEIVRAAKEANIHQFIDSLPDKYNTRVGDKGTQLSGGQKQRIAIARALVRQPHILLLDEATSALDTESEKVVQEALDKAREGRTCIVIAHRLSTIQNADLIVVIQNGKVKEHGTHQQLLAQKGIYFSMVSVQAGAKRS

Molecular target: T1, P-gp (Mus musculus, UniProt P21447)
T1 construct: hMDR1 and C57BL/6 WT mice; from tissue; host or cells: blood-brain barrier (brain capillaries) of living male C57BL/6 WT mice
Parameters: method as in PMID 7910522
Conditions: cited from earlier work

ivermectin
Sensitivity of Mdr1a(-/-) mice compared to wild type controls: 100 fold
